For 1 substance, solubility in water results are on record in patent US20080182893A1, “Anti-Atherogenic Composition” (SAN-EI GEN F.F.I., INC., priority 2005, published 2008).

The nature of this data set: Solubility in water.

Consider “enzymatically modified isoquercitrin [EMIQ]”, for which the solubility in water result is “readily soluble in water”.
